The values that follow come from paper PMC3272148 (2011).

The chains behind the UniProt entries cited, without tags or fusion partners. Residues count along the entry.
UniProt G1SYA7, 1-469: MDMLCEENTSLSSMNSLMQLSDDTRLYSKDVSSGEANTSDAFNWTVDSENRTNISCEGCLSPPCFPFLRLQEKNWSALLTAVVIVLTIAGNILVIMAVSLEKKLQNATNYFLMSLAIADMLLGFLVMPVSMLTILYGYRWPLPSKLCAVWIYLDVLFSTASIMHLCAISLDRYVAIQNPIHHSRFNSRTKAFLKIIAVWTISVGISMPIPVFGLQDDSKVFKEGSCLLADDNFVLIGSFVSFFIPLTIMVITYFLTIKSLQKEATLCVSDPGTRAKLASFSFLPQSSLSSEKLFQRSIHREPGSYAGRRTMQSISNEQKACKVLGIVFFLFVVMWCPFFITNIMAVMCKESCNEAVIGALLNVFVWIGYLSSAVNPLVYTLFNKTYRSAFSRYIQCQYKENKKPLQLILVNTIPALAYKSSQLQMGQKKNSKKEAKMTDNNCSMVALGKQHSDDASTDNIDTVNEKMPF

The target in this assay is serotonin2A (5-HT2A) receptor (Oryctolagus cuniculus, UniProt G1SYA7).

Regarding `CCN(CC)C(=O)[C@@H]1C=C2c3cccc4[nH]cc(c34)C[C@H]2N(C)C1` [LSD], the Ki (in general, a dissociation constant, usually derived from enzyme kinetics or from competition with a known ligand) was found to be 0.46 nM.
Molecule `COc1cc(CC(C)N)c(OC)cc1I` (racemic) [DOI, (±)-1-(2,5-dimethoxy-4-iodophenyl)-2-aminopropane] yielded an inhibition constant (Ki) of 12.5 nM.
